Data set [1] can be described thus: ADC hydrophobicity evaluation by HIC chromatography (DAR8 peak retention time). Format: physicochemical. The settings on record: HIC retention time of DAR8 peak; later RT = more hydrophobic. On the procedure:
HIC method: HPLC analysis was carried out under the following measurement conditions: • HPLC system: Waters ACQUITY ARC HPLC System • Detector: measurement wavelength: 280 nm • Column: Tosoh Bioscience 4.6 μm ID×3.5 cm, 2.5 μm butyl-nonporous resin column • Column temperature: 25° C. • Mobile phase A: 1.5 M ammonium sulfate, 50 mM phosphate buffer, pH 7.0 • Mobile phase B: 50 mM phosphate buffer, 25% (V/V) Isopropanol, pH 7.0 • Gradient program: 0% B-0% B (0 min-2 min), 0% B-100% B (2 min-15 min), 100% B-100% B (15 min-16 min), 100% B-0% B (16 min-17 min), 0% B-0% B (17 min-20 min) • Injected sample amount: 20 g
ADC hydrophobicity evaluation: An ADC with a higher hydrophobic property would appear with a later retention time (“RT”) from HIC (hydrophobicity interaction column) chromatography. Results are presented in Tables 2A-2D using the DAR8 peak as a reference.

The conditions of data set [2]: BALB/c nude mice, intravenous, 5 mg/kg. On the procedure: Female BALB/c nude mice (n==3 per group) were treated with freshly prepared ADCs (5 or 10 mg/kg) through intravenous administration. At the designated time points after dosing, mice were anesthetized by isoflurane. […] Blood samples were placed at room temperature for about 30 minutes and processed by centrifugation (4° C., 3000×g, 7 min) to separate plasma. Serum samples were transferred into new 1.5 mL tubes and kept in a −80° C. freezer prior to analysis.
Serum payload concentrations. To determine serum payload concentrations, an aliquot of 15 μL sample was added with 150 μL IS (Verapamil, 10 ng/mL) in ACN/MeOH (1:1). The mixture was vortexed for 1 min and centrifuged at 4000 rpm for 10 min at 4° C. An aliquot of 80 μL supernatant was diluted with 80 μL, water, and the mixed sample was injected into LC-MS/MS.
LC-MS/MS method to determine payload bioanalysis. LC-MS/MS analysis was carried out under the following measurement conditions: • Instrument: LC-MS/MS (Triple Quad 6500 plus) • Monitor: MRM • Column: Advanced Materials Technology, HALO AQ-C18 2.7 μm 90 Å, 50*2.1 mm • Column temperature: 40° C. • canile phase A: H2O-0.1% FA • Mobile phase B: ACN-0.1% FA • Gradient program for MMAE: 15% B-15% B (0 min-0.4 min), 15% B-30% B (0.4 min-0.8 min), 30% B-30% B (0.8 min-1.8 min), 30% B-90% B (1.8 min-1.9 min), 90% B-90% B (1.9 min-2.4 min), 90% B-15% B (2.4 min-2.5 min), 15% B-15% B (2.5 min-3.0 min) • Injected sample amount: 10 μL (MMAE)
Plasma ADC and total Ab (Tab) concentrations. Plasma ADC and Tab concentrations were determined using an ELISA assay in which the capture reagent was CLL1 or PTK7 (as applicable) ECD (extracellular domain). The detection reagent was anti-payload Ab for ADC concentration and anti-human IgG polyclonal Ab for Tab concentration.
For ADC concentration, microplates were coated with CLL1 or PTK7, as applicable, ECD at 1 μg/mL, 100 μL per well and incubated overnight at 4° C. The microplates were washed 3 times with 0.05% PBST, then 200 μL 2% BSA solution was added per well. The plates were incubated at 37° C. for 1 h followed by washing 3 times with 0.05% PBST. Then 100 μL (of ADC samples or for standard curves) were added to each well. Plates were incubated at 37° C. for 1 h followed by washing 3 times with 0.05% PBST. 100 μL of 1 μg/ml biotin anti-MMAE antibody was added per well. Plates were again incubated at 37° C. for 1 h and then washed 3 times with 0.05% PBST. Then 100 μl of 1:10000 SA-HRP was added per well, incubated at 37° C. for 0.5h, followed by washing 3 times with 0.05% PBST. Lastly, 100 μL TMB was added per well and plates were incubated for 15 mins at room temperature before the addition of 100 μL stop solution per well. Plates were read at OD 450 on an ELISA microplate reader.
For Tab concentration of anti-CLL1 antibodies, the foregoing ADC method was used except for the following changes: 100 μL of anti human lgG Fc HRP (1:10000) was added per well.

The conditions of data set [3]: mouse, 5 mg/kg. On the procedure:
ADC DAR changes in mouse serum PK samples.
Human CLL1 or PTK7, as applicable, ECD was biotinylated and immobilized onto Dynabeads M-280 Streptavidin. ADCs were captured from the plasma samples by incubation with an ECD-bead system for 2 hours at 37° C. The captured ADCs were then washed with HBS-EP buffer (10 mM Hepes [pH 7.4], 150 mM NaCl, 3.4 mM ethylenediaminetetraacetic acid [EDTA], 0.005% Surfactant P20) and digested using IdeS enzyme at 37° C. for 1 h. After extensive washing of the beads with HBS-EP, water, and 10% acetonitrile, the ADC analytes were eluted using 30% acetonitrile with 1% formic acid. The samples were then reduced with 100 mM TCEP for 45 min. Liquid chromatography-tandem mass spectrometry (LC-MS/MS) methods were used for the ADC DAR analysis.

Read-outs that look alike come from different tables or passages of the source.

B1: 3-A (conjugate)
heavy: EVQLVQSGAEVKKPGASVKVSCKASGYSFTDYYMHWVRQAPGQGLEWIGRINPYAGAAFYSQNFKDRVTLTVDTSTSTAYLELSSLRSEDTAVYYCAIERGADLEGYAMDYWGQGTLVTVSSASTKGPSVFPLAPSSKSTSGGTAALGCLVKDYFPEPVTVSWNSGALTSGVHTFPAVLQSSGLYSLSSVVTVPSSSLGTQTYICNVNHKPSNTKVDKKV[human IgG1 Fc not printed]
light: DIQMTQSPSSLSASVGDRVTITCRASQSVSTSSYNYMHWYQQKPGKPPKLLIKYASNLESGVPSRFSGSGSGTDFTLTISSLQPEDFATYYCQHSWEIPLTFGQGTKVEIKRTVAAPSVFIFPPSDEQLKSGTASVVCLLNNFYPREAKVQWKVDNALQSGNSQESVTEQDSKDSTYSLSSTLTLSKADYEKHKVYACEVTHQGLSSPVTKSFNRGEC
In the case of B1, the “DAR8 RT” value in data set [1] was 14.466 min. The “ADC AUClast” value in data set [2] is 4353 µg·h/mL. Also, the “Tab AUClast” value in data set [2] is 6448 µg·h/mL. Moreover, the DAR in data set [3] (0.5 h post-dosing) is reported as 2.76; in data set [3] (72 h post-dosing) it was 1.96; in data set [3] ([…] post-dosing), 1.22.

The values are drawn from patent US20260256936A1, “BIOACTIVE CONJUGATES, PREPARATION METHOD AND USE THEREOF” (priority 2023, published 2026).
